# Data reported in publication PMC11145868, “Protein target similarity is positive predictor of in vitro antipathogenic activity: a drug repurposing strategy for Plasmodium falciparum” (Journal of Cheminformatics, 2024).
# How the values were obtained:
# HepG2 cells = test: Mammalian cell cytotoxicity assay, HepG2 (CellTiter-Glo, 72 h); conditions: read-out: HEP CC50
# HEK293T cells = test: Mammalian cell cytotoxicity assay, HEK293T (CellTiter-Glo, 72 h); conditions: read-out: HEK CC50
substance,measurement,setting,value
Oligomycin A,CC50,HepG2 cells,2 nM
same,CC50,HEK293T cells,5580 nM
